Measurements reported in US20220242906A1 (AGENCY FOR SCIENCE TECHNOLOGY AND RESEARCH, published 2022).

Amino acid sequences for entries named in this document (tags omitted). Residues count along the entry.
UniProt P06730, 2-217 limits assumed: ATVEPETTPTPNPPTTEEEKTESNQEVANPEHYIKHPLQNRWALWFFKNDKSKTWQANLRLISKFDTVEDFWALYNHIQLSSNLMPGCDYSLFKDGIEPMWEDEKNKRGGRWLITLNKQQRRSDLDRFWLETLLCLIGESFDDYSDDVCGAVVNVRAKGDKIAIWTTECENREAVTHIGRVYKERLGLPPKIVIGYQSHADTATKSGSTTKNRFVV

Biological target: T1, elongation initiation factor 4E (eIF4E) (UniProt P06730 2-217, limits assumed)
T1 construct: mature; In SPR it was amine-coupled to a CM5 chip with m7GTP present; also called full-length eIF4E; GS-eIF4E (biotinylated form used only for phage panning)
Assay: SPR (Biacore T100), eIF4E immobilised on CM5 chip, peptide as analyte
Protocol: Running buffer consisted of 10 mM Hepes pH 7.6, 0.15 M NaCl, and 0.1% Tween20. Stock/DMSO diluted peptide solutions were diluted into 1.03× running buffer to make a peptide solution with 3% DMSO final concentration. […] Surface Plasmon resonance experiments were performed on a Biacore T100 machine.
Pure eIF4E was immnobilized on a CM5 sensor chip. The CM5 chip was conditioned with a 6 s injection of 100 mM HCL, followed by a 6 s injection of 0.1% SDS and completed with a 6 s injection of 50 mM NaOH at a flow rate of 100 μl/min. Activation of the sensor chip surface was performed with a mixture of NHS (115 mg ml⁻¹) and EDC (750 mg ml⁻¹) for 7 min at 10 μl min⁻¹. […]
Six buffer blanks were first injected to equilibrate the instrument fully and then a solvent correction curve was performed followed by a further two blank injections. […] Using a flow rate of 50 μl/min, compounds were injected for 60 s and dissociation was monitored for 180 s. […] Kds were determined using the BiaEvaluation software (Biacore) and calculated from both the response of the eIF4E coated CM5 chips at equilibrium and also kinetically from the dissociation and association phase data for each of the peptides. […] Each individual peptide Kd was determined from three separate titrations. […]

B1: EE-12 (CEMGFFQDCG) (peptide)
peptide: CEMGFFQDCG
modifications: free N-terminal amine; C-terminal amide; disulphide bond between the two Cys (residues 1 and 9 of this peptide)
notes: EE-02 without A1
Which Kd does the source give for B1 here?
The Kd was 77 nM.
